Biological target: Strep-SNAP-PD-L1^EX-His10 (human) (UniProt Q9NZQ7)
Experiment: FRET or BRET

Protein sequences, listed by entry. Tags and fused reporters are not part of them. Residues count along the entry.
UniProt Q9NZQ7, 19-239: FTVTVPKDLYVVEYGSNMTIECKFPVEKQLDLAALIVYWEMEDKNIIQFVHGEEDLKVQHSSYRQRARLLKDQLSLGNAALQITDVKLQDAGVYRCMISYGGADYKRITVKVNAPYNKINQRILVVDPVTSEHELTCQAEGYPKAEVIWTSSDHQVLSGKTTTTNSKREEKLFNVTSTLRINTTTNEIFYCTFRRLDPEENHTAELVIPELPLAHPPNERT
UniProt Q15116, 21-170: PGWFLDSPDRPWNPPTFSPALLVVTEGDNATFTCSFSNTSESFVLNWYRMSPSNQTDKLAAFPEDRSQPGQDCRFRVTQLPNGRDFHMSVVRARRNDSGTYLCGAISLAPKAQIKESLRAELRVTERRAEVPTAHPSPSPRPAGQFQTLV

## Strep-SNAP-PD-1^EX-His10 (from UniProt Q15116 21-170) (domain or fragment)
  Kd: 0.018 µM
